## Permeability data for macrocyclic peptides

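The data file gives no further conditions (lipid, pH, time, direction or concentration), and values from different papers need not be comparable. Other peptides of the study may be missing here. Entries at the database's floor value (log10 P of -10) are not listed.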

PAMPA is the parallel artificial membrane permeability assay, which has no cells and reads passive diffusion. Permeability is given as log10 of P in cm/s; higher (less negative) is more permeable.

CC(=O)N[C@@H]1C(=O)N2CCC[C@H]2C(=O)N(C)[C@H](CC(C)C)C(=O)N(C)[C@H](CC(C)C)C(=O)N(C)[C@H](CC(C)C)C(=O)N(C)[C@@H](CC(C)C)C(=O)N(C)[C@@H](C)C(=O)N[C@@H](CC(C)C)C(=O)N2CCC[C@@H]2C(=O)O[C@@H]1C is reported with PAMPA -5.80 (log10 cm/s). CC(=O)N1CCC[C@H]1C(=O)N(C)[C@@H](CC(C)C)C(=O)N[C@@H]1C(=O)N(C)[C@H](CC(C)C)C(=O)N(C)[C@@H](CC(C)C)C(=O)N[C@@H](CC(C)C)C(=O)N(C)[C@H](C)C(=O)N[C@@H](CC(C)C)C(=O)N2CCC[C@@H]2C(=O)O[C@@H]1C is reported with PAMPA -6.09 (log10 cm/s). For CC(=O)N1CCC[C@H]1C(=O)N[C@@H]1C(=O)N(C)[C@H](CC(C)C)C(=O)N[C@H](CC(C)C)C(=O)N(C)[C@H](CC(C)C)C(=O)N[C@H](CC(C)C)C(=O)N(C)[C@@H](C)C(=O)N[C@@H](CC(C)C)C(=O)N2CCC[C@@H]2C(=O)O[C@@H]1C the data give PAMPA -5.98 (log10 cm/s). CC(=O)N1CCC[C@H]1C(=O)N(C)[C@H](CC(C)C)C(=O)N[C@@H]1C(=O)N[C@@H](CC(C)C)C(=O)N(C)[C@@H](CC(C)C)C(=O)N[C@@H](CC(C)C)C(=O)N(C)[C@H](C)C(=O)N[C@H](CC(C)C)C(=O)N2CCC[C@@H]2C(=O)O[C@@H]1C is reported with PAMPA -5.35 (log10 cm/s). Listed for CC(=O)N1CCC[C@@H]1C(=O)N(C)[C@@H](CC(C)C)C(=O)N[C@@H]1C(=O)N(C)[C@H](CC(C)C)C(=O)N(C)[C@H](CC(C)C)C(=O)N[C@@H](CC(C)C)C(=O)N(C)[C@H](C)C(=O)N[C@@H](CC(C)C)C(=O)N2CCC[C@@H]2C(=O)O[C@@H]1C: PAMPA -5.53 (log10 cm/s). Listed for CC(=O)N1CCC[C@H]1C(=O)N(C)[C@@H](CC(C)C)C(=O)N[C@@H]1C(=O)N(C)[C@@H](CC(C)C)C(=O)N[C@H](CC(C)C)C(=O)N(C)[C@@H](CC(C)C)C(=O)N(C)[C@@H](C)C(=O)N[C@H](CC(C)C)C(=O)N2CCC[C@H]2C(=O)O[C@@H]1C: PAMPA -5.69 (log10 cm/s).

For CC(=O)N1CCC[C@@H]1C(=O)N(C)[C@H](CC(C)C)C(=O)N[C@@H]1C(=O)N[C@H](CC(C)C)C(=O)N(C)[C@H](CC(C)C)C(=O)N[C@H](CC(C)C)C(=O)N(C)[C@H](C)C(=O)N[C@H](CC(C)C)C(=O)N2CCC[C@@H]2C(=O)O[C@@H]1C the data give PAMPA -6.18 (log10 cm/s). CC(=O)N[C@@H]1C(=O)N2CCC[C@H]2C(=O)N(C)[C@H](CC(C)C)C(=O)N(C)[C@H](CC(C)C)C(=O)N(C)[C@@H](CC(C)C)C(=O)N(C)[C@@H](CC(C)C)C(=O)N(C)[C@@H](C)C(=O)N[C@@H](CC(C)C)C(=O)N2CCC[C@@H]2C(=O)O[C@@H]1C is reported with PAMPA -5.47 (log10 cm/s). CC(=O)N1CCC[C@H]1C(=O)N(C)[C@H](CC(C)C)C(=O)N[C@@H]1C(=O)N[C@H](CC(C)C)C(=O)N[C@H](CC(C)C)C(=O)N[C@H](CC(C)C)C(=O)N(C)[C@H](C)C(=O)N[C@@H](CC(C)C)C(=O)N2CCC[C@@H]2C(=O)O[C@@H]1C is reported with PAMPA -5.73 (log10 cm/s). For CC(=O)N1CCC[C@@H]1C(=O)N(C)[C@H](CC(C)C)C(=O)N[C@@H]1C(=O)N[C@H](CC(C)C)C(=O)N(C)[C@H](CC(C)C)C(=O)N[C@H](CC(C)C)C(=O)N(C)[C@H](C)C(=O)N[C@@H](CC(C)C)C(=O)N2CCC[C@H]2C(=O)O[C@@H]1C the data give PAMPA -6.19 (log10 cm/s). For CC(=O)N[C@@H]1C(=O)N2CCC[C@H]2C(=O)N(C)[C@H](CC(C)C)C(=O)N(C)[C@H](CC(C)C)C(=O)N[C@@H](CC(C)C)C(=O)N(C)[C@@H](CC(C)C)C(=O)N[C@@H](C)C(=O)N[C@@H](CC(C)C)C(=O)N2CCC[C@@H]2C(=O)O[C@@H]1C the data give PAMPA -5.02 (log10 cm/s). The entry for CC(=O)N1CCC[C@@H]1C(=O)N(C)[C@@H](CC(C)C)C(=O)N[C@@H]1C(=O)N(C)[C@@H](CC(C)C)C(=O)N[C@H](CC(C)C)C(=O)N(C)[C@H](CC(C)C)C(=O)N(C)[C@@H](C)C(=O)N[C@@H](CC(C)C)C(=O)N2CCC[C@@H]2C(=O)O[C@@H]1C lists PAMPA -5.44 (log10 cm/s).

CC(=O)N1CCC[C@H]1C(=O)N(C)[C@H](CC(C)C)C(=O)N[C@@H]1C(=O)N[C@H](CC(C)C)C(=O)N[C@@H](CC(C)C)C(=O)N(C)[C@@H](CC(C)C)C(=O)N(C)[C@@H](C)C(=O)N[C@H](CC(C)C)C(=O)N2CCC[C@H]2C(=O)O[C@@H]1C has PAMPA -5.46 (log10 cm/s). CC(=O)N1CCC[C@H]1C(=O)N[C@@H]1C(=O)N[C@H](CC(C)C)C(=O)N[C@H](CC(C)C)C(=O)N(C)[C@@H](CC(C)C)C(=O)N(C)[C@@H](CC(C)C)C(=O)N(C)[C@@H](C)C(=O)N[C@@H](CC(C)C)C(=O)N2CCC[C@@H]2C(=O)O[C@@H]1C is reported with PAMPA -5.62 (log10 cm/s).

Excerpt, the final 2 entries:

| structure (SMILES) | PAMPA (log10 cm/s) |
|---|---|
| CC(=O)N1CCC[C@H]1C(=O)N(C)[C@H](CC(C)C)C(=O)N[C@@H]1C(=O)N[C@H](CC(C)C)C(=O)N[C@@H](CC(C)C)C(=O)N(C)[C@@H](CC(C)C)C(=O)N(C)[C@@H](C)C(=O)N[C@H](CC(C)C)C(=O)N2CCC[C@H]2C(=O)O[C@@H]1C | -5.46 |
| CC(=O)N1CCC[C@H]1C(=O)N[C@@H]1C(=O)N[C@H](CC(C)C)C(=O)N[C@H](CC(C)C)C(=O)N(C)[C@@H](CC(C)C)C(=O)N(C)[C@@H](CC(C)C)C(=O)N(C)[C@@H](C)C(=O)N[C@@H](CC(C)C)C(=O)N2CCC[C@@H]2C(=O)O[C@@H]1C | -5.62 |

Data: CycPeptMPDB; original report Kelly et al. 2021, doi:10.1021/jacs.0c06115.